Experiments:
[1] = system: PBMC of healthy adult blood donors from Colombo, Sri Lanka; test: Ex vivo IFNγ ELISPOT, HLA-matched PBMC of Sri Lankan blood donors; type: cell-based, human; parameters: Total Response per epitope: unit not given here; conditions: for # donors responded: number of donors responding to the epitope
[2] = system: splenic CD8+ T cells from DENV2 (S221) infected HLA transgenic IFN-α/βR−/− mice; test: IFNγ ELISPOT, CD8+ T cells of DENV2 (S221) infected HLA class I transgenic IFN-α/βR−/− mice; type: cell-based, mouse; conditions: HLA B*0702 transgenic IFN-α/βR−/− mice, day 7 after DENV2 S221; IFNγ SFC/10^6 CD8+ T cells
[3] = system: PBMC from DENV seropositive HLA matched human donors; test: IFNγ ELISPOT of human PBMC restimulated 7 days with peptide and IL2; type: cell-based
[4] = system: splenic CD8+ T cells from DENV3 (D3S5CX) infected HLA transgenic IFN-α/βR−/− mice; test: IFNγ ELISPOT, CD8+ T cells of DENV3 (D3S5CX) infected HLA class I transgenic IFN-α/βR−/− mice; type: cell-based, mouse; conditions: HLA B*0702 transgenic IFN-α/βR−/− mice, day 7 after DENV3 D3S5CX; SFC/10^6 T cells
[5] = ex vivo IFNγ ELISPOT, donors expressing HLA B*0702 (supertype B7)
[6] = restricting HLA allele and serotype as given
[7] = total over responding donors, restricting HLA allele and serotype as given
[8] = ex vivo IFNγ ELISPOT, donors expressing HLA B*3501 (supertype B7)
[9] = IFNγ ELISPOT response summed over responding donors, per epitope
[10] = HLA-matched PBMC, proteome-wide screen
[11] = HLA allele, supertype and serotype
[12] = summed IFNγ ELISPOT response per epitope, HLA allele and serotype as given

For `CC[C@H](C)[C@H](NC(=O)[C@H](Cc1ccccc1)NC(=O)[C@H](C)NC(=O)[C@H](CCSC)NC(=O)[C@@H](NC(=O)[C@H](CC(C)C)NC(=O)[C@H](CCCCN)NC(=O)[C@H](CCSC)NC(=O)[C@@H]1CCCN1C(=O)CN)C(C)C)C(=O)O`, the “T cell response [SFC]” value [1, 5] was 62 SFC, the “# donors responded” value [1, 6] was 1 and the “Total Response per epitope” value [1, 7] was 358.3.
For `CC[C@H](C)[C@H](NC(=O)[C@@H]1CCCN1C(=O)[C@@H](NC(=O)[C@H](CO)NC(=O)[C@@H](NC(=O)[C@@H]1CCCN1C(=O)[C@@H](N)Cc1ccccc1)C(C)C)[C@@H](C)CC)C(=O)N[C@H](C(=O)N[C@@H](C)C(=O)N[C@@H](C)C(=O)O)[C@@H](C)O`, the “T cell response [SFC]” value [1, 8] was 35 SFC, the “# donors responded” value [1, 6] was 1 and the “Total Response per epitope” value [1, 7] was 71.7.
For `CC[C@H](C)[C@H](NC(=O)[C@@H](NC(=O)[C@@H](N)CCCNC(=N)N)C(C)C)C(=O)N[C@@H](CC(=O)O)C(=O)N1CCC[C@H]1C(=O)N[C@@H](CCCNC(=N)N)C(=O)N[C@@H](CCCNC(=N)N)C(=O)N[C@@H](CS)C(=O)N[C@@H](CC(C)C)C(=O)N[C@@H](CCCCN)C(=O)O`, the “Total Response per epitope” value [1, 9] was 258.3 and the “# donors responded” value [1, 10] was 3.
In the case of `CC[C@H](C)[C@H](NC(=O)[C@H](C)NC(=O)[C@@H]1CCCN1C(=O)[C@@H](NC(=O)[C@H](CCC(N)=O)NC(=O)[C@H](Cc1ccc(O)cc1)NC(=O)[C@H](CCCNC(=N)N)NC(=O)[C@@H](NC(=O)[C@@H]1CCCN1C(=O)[C@@H](N)CC(C)C)[C@@H](C)CC)[C@@H](C)O)C(=O)O`, the “Total Response per epitope” value [1, 9] is reported as 894.3 and the “# donors responded” value [1, 10] is reported as 5.
For `CC(C)C[C@H](NC(=O)[C@H](Cc1ccc(O)cc1)NC(=O)[C@@H]1CCCN1C(=O)[C@@H](N)C(C)C)C(=O)NCC(=O)N[C@@H](CCCCN)C(=O)N[C@@H](CCCNC(=N)N)C(=O)N[C@@H](CCC(=O)O)C(=O)N[C@@H](CC(=O)O)C(=O)N[C@@H](CCC(N)=O)C(=O)O`, the “# donors responded” value [1, 11] was 2 and the “Total Response per epitope” value [1, 12] was 423.3.
In the case of `CC(C)C[C@H](NC(=O)[C@H](CCCCN)NC(=O)[C@@H](NC(=O)[C@H](CCCCN)NC(=O)[C@@H]1CCCN1C(=O)[C@@H](N)Cc1ccc(O)cc1)[C@@H](C)O)C(=O)N[C@H](C(=O)N[C@@H](CC(=O)O)C(=O)N[C@@H](Cc1c[nH]c2ccccc12)C(=O)N[C@@H](CC(=O)O)C(=O)O)[C@@H](C)O`, the “# donors responded” value [1, 11] is reported as 1 and the “Total Response per epitope” value [1, 12] is reported as 110.0.
For `CC[C@H](C)[C@H](NC(=O)[C@@H](NC(=O)[C@@H]1CCCN1C(=O)[C@H](CO)NC(=O)CNC(=O)[C@H](CO)NC(=O)[C@@H](NC(=O)CNC(=O)[C@@H]1CCCN1C(=O)[C@@H](N)CCCCN)[C@@H](C)O)[C@@H](C)CC)C(=O)O`, the “# donors responded” value [1, 6] was 1 and the “Total Response per epitope” value [1, 7] was 118.3.
In the case of `C[C@H](NC(=O)[C@@H]1CCCN1C(=O)[C@@H](N)CC(N)=O)C(=O)N[C@@H](CCC(N)=O)C(=O)N[C@@H](CCC(=O)O)C(=O)N[C@@H](CC(=O)O)C(=O)N[C@@H](CC(=O)O)C(=O)N[C@@H](CCC(N)=O)C(=O)N[C@@H](Cc1ccc(O)cc1)C(=O)O`, the “Total Response per epitope” value [1, 9] is reported as 176.7 and the “# donors responded” value [1, 10] is reported as 2.
In the case of `CC[C@H](C)[C@H](N)C(=O)N[C@H](C(=O)N1CCC[C@H]1C(=O)N[C@@H](CCSC)C(=O)N[C@@H](CC(C)C)C(=O)N[C@@H](CCCNC(=N)N)C(=O)N[C@@H](Cc1c[nH]cn1)C(=O)N[C@H](C(=O)N[C@H](C(=O)O)[C@@H](C)CC)[C@@H](C)O)[C@@H](C)O`, the “# donors responded” value [1, 6] is reported as 1 and the “Total Response per epitope” value [1, 7] is reported as 190.0.
`CC[C@H](C)[C@H](NC(=O)[C@@H](NC(=O)[C@@H](N)CCCNC(=N)N)C(C)C)C(=O)N[C@@H](CC(=O)O)C(=O)N1CCC[C@H]1C(=O)N[C@@H](CCCNC(=N)N)C(=O)N[C@@H](CCCNC(=N)N)C(=O)N[C@@H](CS)C(=O)N[C@@H](CCSC)C(=O)N[C@@H](CCCCN)C(=O)O` was tested, and the “Total Response per epitope” value [1, 9] was 480.0, the “T cell response [SFC]” value ([1]; ex vivo IFNγ ELISPOT, donors expressing HLA A*0301 (supertype A3)) was 160 SFC and the “T cell response [SFC]” value ([1]; ex vivo IFNγ ELISPOT, donors expressing HLA A*1101 (supertype A3)) was 93 SFC. For the same compound, the “# donors responded” value [1, 10] was 6.
For `CSCC[C@H](NC(=O)[C@H](CCC(=O)O)NC(=O)[C@H](C)NC(=O)[C@H](C)NC(=O)[C@@H](NC(=O)[C@@H](NC(=O)[C@H](CCCNC(=N)N)NC(=O)[C@@H](NC(=O)[C@@H]1CCCN1C(=O)[C@H](C)N)[C@@H](C)O)C(C)C)C(C)C)C(=O)O` [NS31700-1709], the “T cell responses [SFC] mouse” value [2] was 1064 SFC, the “T cell response [SFC]” value [1, 5] was 113 SFC and the “T cell response [SFC]” value [1, 8] was 135 SFC. The “# donors responded” value [1, 6] was 8, the “T cell response [SFC]” value ([1]; per epitope, ex vivo IFNγ SFC/10^6 PBMC) was 1623 SFC and the “# of responders” value ([1]; responding donors, HLA allele(s)) was 8. For the same compound, the “Total Response per epitope” value [1, 7] was 1623.3, the “T cell responses [SFC] human” value ([3]; B*0702 matched DENV seropositive donors, 1 μg/ml peptide 7 days, IFNγ per 10^6 PBMC) was 1426 SFC and the frequency in humans ([3]; responding B*0702 matched donors (out of 5)) was 40% (2 out of 5). For the same compound, the “T cell response [SFC]” value [4] was 291 SFC.

— patent US10308689B2, “Dengue virus (DV) polypeptide sequences, T cell epitopes and methods and uses thereof” (LA JOLLA INSTITUTE FOR ALLERGY AND IMMUNOLOGY, priority 2010, dated 2019)
